Results as given in patent publication US12162874B2, “Peptidomimetic-based antibody surrogate for HER2” (University of South Florida, priority 2021, dated 2024).

System: SKBR3 tumor xenograft
Assay: Antitumor study in SKBR3 xenograft nude mice, tumor volume
Format: in vivo, mouse
Conditions: after end of dosing, until day 24
Text: Male BALB/c nude mice, 4-6 weeks old, were provided by the Shanghai Bikai Experimental Animal Center, with the license number SOXK (Hu) 2008-0016, and maintained under specific-pathogen-free conditions. All animal protocols were approved by the Institutional Animal Use and Care Committee. All the experiments and animal care were approved by Shanghai Medical Experimental Animal Care Commission and in accordance with the Provision and General Recommendation of Chinese Experimental Animals Administration Legislation.

## trastuzumab: a monoclonal antibody that targets the HER2 pathway [reference compound]
  tumor volume after the last drug injection on day 12: significant reduction in tumor volume was still observed
